Reference: ChEMBL document CHEMBL5576047, “Synthesis of a new 2-prenylated quinoline as potential drug for metabolic syndrome with pan-PPAR activity and anti-inflammatory effects” (Bioorg Med Chem Lett, 2024)

Assays:
Format in all cases: functional, cell-based
[1] = test system: THP-1; experiment: Antiinflammatory activity in LPS-induced human THP-1 cells assessed as reduction in LPS-induced IL-6 mRNA expression at 10 uM preincubated for 1 hr followed by LPS stimulation and measured after 24 hrs by RT-qPCR analysis; settings: time 25.0 hrs
[2] = test system: THP-1; experiment: Antiinflammatory activity in LPS-induced human THP-1 cells assessed as reduction in LPS-induced CCL2 mRNA expression at 10 uM preincubated for 1 hr followed by LPS stimulation and measured after 24 hrs by RT-qPCR analysis; settings: time 25.0 hrs
[3] = test system: THP-1; experiment: Antiinflammatory activity in LPS-induced human THP-1 cells assessed as reduction in LPS-induced CCL2 mRNA expression at 10 uM preincubated for 1 hr followed by LPS stimulation and measured after 4 hrs by RT-qPCR analysis; settings: time 5.0 hrs

Measured: Activity

CCOC(=O)CC/C(C)=C/CCc1ccc2cc(OCc3ccccc3)ccc2n1
active: all assays above

The source made the active and inactive calls.
